{
  "source": "paper PMC7770057",
  "about": "(Journal of medicinal chemistry, 2020)",
  "key": {"H3122 cells": {"tested_on": "H3122 cells", "details": "3 days"}, "HT-29 cells [1]": {"tested_on": "HT-29 cells", "details": "10 days"}, "pMEK and pERK": {"tested_on": "pMEK and pERK", "details": "for inhibition of MEK and ERK phosphorylation compared with degraders 24, 27 and 50: HT-29 and SK-MEL-28 cells, 24 h"}, "HT-29 cells [2]": {"tested_on": "HT-29 cells", "test": "Antiproliferation", "details": "Homo sapiens, HT-29, 72 h, read-out: HT-29 GI50, HT-29 cells, 3 days, mean ± SD"}},
  "data": [
    {"smiles": "Cc1ncsc1-c1ccc([C@H](C)NC(=O)[C@@H]2C[C@@H](O)CN2C(=O)[C@@H](NC(=O)CCCCCCCCCCN(C)CCCONC(=O)c2ccc(F)c(F)c2Nc2ccc(I)cc2F)C(C)(C)C)cc1", "note": "[Compound 24, (2S,4R)-1-((S)-20-(tert-Butyl)-1-(3,4-difluoro-2-((2-fluoro-4-iodophenyl)amino)phenyl)-7-methyl-1,18-dioxo-3-oxa-2,7,19-triazahenicosan-21-oyl)-4-hydroxy-N-((S)-1-(4-(4-methylthiazol-5-yl)phenyl)ethyl)pyrrolidine-2-carboxamide]", "values": [
      {"measurement": "growth inhibition potency compared with compound 4", "setting": "H3122 cells", "value": "better potency"},
      {"measurement": "inhibition of colony formation vs corresponding controls", "setting": "HT-29 cells [1]", "value": "much more effectively than the corresponding controls"}
    ]},
    {"smiles": "Cc1ncsc1-c1ccc([C@H](C)NC(=O)[C@@H]2C[C@@H](O)CN2C(=O)[C@@H](NC(=O)CCCCCCCCCCCNCCCCONC(=O)c2ccc(F)c(F)c2Nc2ccc(I)cc2F)C(C)(C)C)cc1", "note": "[Compound 27, (2S,4R)-1-((S)-22-(tert-Butyl)-1-(3,4-difluoro-2-((2-fluoro-4-iodophenyl)amino)phenyl)-1,20-dioxo-3-oxa-2,8,21-triazatricosan-23-oyl)-4-hydroxy-N-((S)-1-(4-(4-methylthiazol-5-yl)phenyl)ethyl)pyrrolidine-2-carboxamide]", "values": [
      {"measurement": "growth inhibition potency compared with compound 4", "setting": "H3122 cells", "value": "better potency"},
      {"measurement": "inhibition of colony formation vs corresponding controls", "setting": "HT-29 cells [1]", "value": "much more effectively than the corresponding controls"}
    ]},
    {"smiles": "O=C1CCC(N2C(=O)c3ccc(NCCOCCOCCOCCOCCOCCNCCCONC(=O)c4ccc(F)c(F)c4Nc4ccc(I)cc4F)cc3C2=O)C(=O)N1", "note": "(stereo not shown) [Compound 50, N-((1-((2-(2,6-Dioxopiperidin-3-yl)-1,3-dioxoisoindolin-5-yl)amino)-3,6,9,12,15-pentaoxa-18-azahenicosan-21-yl)oxy)-3,4-di-fluoro-2-((2-fluoro-4-iodophenyl)amino)benzamide]", "values": [
      {"measurement": "time of ERK phosphorylation inhibition", "setting": "pMEK and pERK; HT-29 cells, 0.3 μM", "value": "8 to 10", "unit": "h"},
      {"measurement": "inhibition of colony formation vs corresponding controls", "setting": "HT-29 cells [1]", "value": "much more effectively than the corresponding controls"}
    ]},
    {"smiles": "Cc1ncsc1-c1ccc([C@H](C)NC(=O)[C@H]2C[C@H](O)CN2C(=O)[C@@H](NC(=O)CCCCCCCCCCN(C)CCCONC(=O)c2ccc(F)c(F)c2Nc2ccc(I)cc2F)C(C)(C)C)cc1", "note": "[Compound 51, (2R,4S)-1-((S)-20-(tert-Butyl)-1-(3,4-difluoro-2-((2-fluoro-4-iodophenyl)amino)phenyl)-7-methyl-1,18-dioxo-3-oxa-2,7,19-triazahenicosan-21-oyl)-4-hydroxy-N-((S)-1-(4-(4-methylthiazol-5-yl)phenyl)ethyl)pyrrolidine-2-carboxamide]", "values": [
      {"measurement": "inhibition of MEK and ERK phosphorylation compared with degraders 24, 27 and 50", "setting": "pMEK and pERK", "value": "much less potent"}
    ]},
    {"smiles": "Cc1ncsc1-c1ccc([C@H](C)NC(=O)[C@H]2C[C@H](O)CN2C(=O)[C@@H](NC(=O)CCCCCCCCCCCNCCCCONC(=O)c2ccc(F)c(F)c2Nc2ccc(I)cc2F)C(C)(C)C)cc1", "note": "[Compound 52, (2R,4S)-1-((S)-22-(tert-Butyl)-1-(3,4-difluoro-2-((2-fluoro-4-iodophenyl)amino)phenyl)-1,20-dioxo-3-oxa-2,8,21-triazatricosan-23-oyl)-4-hydroxy-N-((S)-1-(4-(4-methylthiazol-5-yl)phenyl)ethyl)pyrrolidine-2-carboxamide]", "values": [
      {"measurement": "inhibition of MEK and ERK phosphorylation compared with degraders 24, 27 and 50", "setting": "pMEK and pERK", "value": "much less potent"}
    ]},
    {"smiles": "CN1C(=O)CCC(N2C(=O)c3ccc(NCCOCCOCCOCCOCCOCCNCCCONC(=O)c4ccc(F)c(F)c4Nc4ccc(I)cc4F)cc3C2=O)C1=O", "note": "(stereo not shown) [Compound 53, 3,4-Difluoro-2-((2-fluoro-4-iodophenyl)amino)-N-((1-((2-(1-methyl-2,6-dioxopiperidin-3-yl)-1,3-dioxoisoindolin-5-yl)amino)-3,6,9,12,15-pentaoxa-18-azahenicosan-21-yl)oxy)benzamide]", "values": [
      {"measurement": "inhibition of MEK and ERK phosphorylation compared with degraders 24, 27 and 50", "setting": "pMEK and pERK", "value": "much less potent"},
      {"measurement": "GI50", "setting": "HT-29 cells [2]", "value": "2600 ± 79", "unit": "nM"}
    ]}
  ]
}
